Data as given in BindingDB's records for 12904075.

Chains of the proteins cited; added tags and fusions are not shown.
UniProt P10696, whole entry, looked up: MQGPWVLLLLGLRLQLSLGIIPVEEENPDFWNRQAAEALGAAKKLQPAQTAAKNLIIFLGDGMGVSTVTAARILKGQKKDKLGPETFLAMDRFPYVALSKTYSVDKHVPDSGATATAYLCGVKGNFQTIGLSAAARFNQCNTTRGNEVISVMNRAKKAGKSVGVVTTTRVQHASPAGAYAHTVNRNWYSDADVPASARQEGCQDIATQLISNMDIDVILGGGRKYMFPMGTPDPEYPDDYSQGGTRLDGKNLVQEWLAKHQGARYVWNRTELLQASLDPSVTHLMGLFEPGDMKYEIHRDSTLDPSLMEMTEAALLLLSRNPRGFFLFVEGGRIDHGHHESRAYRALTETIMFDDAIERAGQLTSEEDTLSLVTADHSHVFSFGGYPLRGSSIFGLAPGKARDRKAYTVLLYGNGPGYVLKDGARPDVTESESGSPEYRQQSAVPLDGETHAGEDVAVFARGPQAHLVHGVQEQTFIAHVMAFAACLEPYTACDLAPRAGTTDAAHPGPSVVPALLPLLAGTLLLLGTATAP
UniProt P03772, whole entry, looked up: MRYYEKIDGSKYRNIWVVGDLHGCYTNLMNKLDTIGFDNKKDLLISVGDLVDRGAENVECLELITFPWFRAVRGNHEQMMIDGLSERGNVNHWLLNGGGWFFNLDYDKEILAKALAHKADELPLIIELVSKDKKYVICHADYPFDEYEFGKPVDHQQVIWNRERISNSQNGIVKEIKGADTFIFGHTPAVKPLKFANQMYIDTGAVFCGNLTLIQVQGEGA
UniProt P08289, whole entry, looked up: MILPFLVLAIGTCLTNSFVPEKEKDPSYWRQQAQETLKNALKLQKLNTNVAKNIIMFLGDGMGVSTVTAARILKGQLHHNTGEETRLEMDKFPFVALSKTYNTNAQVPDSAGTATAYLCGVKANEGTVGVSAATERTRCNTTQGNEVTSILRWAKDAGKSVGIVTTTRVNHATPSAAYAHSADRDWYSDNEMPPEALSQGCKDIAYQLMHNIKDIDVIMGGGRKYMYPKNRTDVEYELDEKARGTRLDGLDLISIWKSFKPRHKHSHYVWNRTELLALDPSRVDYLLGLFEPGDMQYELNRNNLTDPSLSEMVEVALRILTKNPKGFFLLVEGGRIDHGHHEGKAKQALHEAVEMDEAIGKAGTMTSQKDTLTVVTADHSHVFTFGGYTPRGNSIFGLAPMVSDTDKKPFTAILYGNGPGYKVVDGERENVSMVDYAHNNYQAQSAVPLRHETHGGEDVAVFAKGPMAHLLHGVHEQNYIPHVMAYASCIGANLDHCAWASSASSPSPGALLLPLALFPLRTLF

Key:
[1] = target: Alkaline phosphatase, germ cell type (Homo sapiens, UniProt P10696); experiment: ASSAY_NAME: ChEMBL_157081 (CHEMBL765525) DESCRIPTION: Inhibition of Human Placental alkaline Phosphatase (PLAP)
[2] = target: Serine/threonine-protein phosphatase (Lambdavirus lambda, UniProt P03772); experiment: ASSAY_NAME: ChEMBL_96757 (CHEMBL705380) DESCRIPTION: Inhibitory activity against Serine/Threonine Protein Phosphatase (Lambda protein phosphatase)
[3] = target: Alkaline phosphatase, tissue-nonspecific isozyme (Rattus norvegicus, UniProt P08289); experiment: ASSAY_NAME: ChEMBL_29961 (CHEMBL640395) DESCRIPTION: Inhibitory activity against Escherichia coli Alkaline Phosphatase

| Structure (SMILES) | Ki [1] [mM] | Ki [2] [mM] | Ki [3] [mM] |
| --- | --- | --- | --- |
| CP(=O)(O)O | 11 | 1.01 | – |
| CCCP(=O)(O)O | 1.55 | – | 0.61 |
| CP(O)(O)=S | 19 | 17 | – |
